# In patent publication US12162865B2, “Methods of treating cancer” (Epizyme, Inc., priority 2012, dated 2024):
# Read-outs that look alike come from different tables or passages of the source.
# Key:
# DOHH-2 cells = details: DOHH-2, EZH2 Wild Type; 11 days
# Farage cells = details: EZH2 Wild Type, 11 days
# OCI-LY19 cells = details: OCI-LY19, EZH2 Wild Type; 11 days; n = 9
# Toledo cells = details: EZH2 Wild Type, 11 days
# Karpas-422 cells = details: Karpas-422, EZH2 Y641N; 11 days
# Pfeiffer cells = details: EZH2 A677G, 11 days, mean n = 2
# RL cells = details: EZH2 Y641N, 11 days
# SU-DHL-10 cells = details: SU-DHL-10, EZH2 Y641F; 11 days
# SU-DHL-6 cells = details: SU-DHL-6, EZH2 Y641N; 11 days
# WSU-DLCL2 cells = details: WSU-DLCL2, EZH2 Y641F; 11 days; mean n = 15
# [1] = tested on: WSU-DLCL2 EZH2 Y641F mutant xenograft; details: SCID mice, oral, 4 or 7 days; 5 minutes before or 3 hours after last dose
# [2] = tested on: subcutaneous G401 xenografts
# [3] = tested on: H3K27Me3 in PBMCs, bone marrow and skin; details: 100, 300, or 1000 mg/kg oral, 28 days
structure (smiles),measurement,setting,value
"CCN(c1cc(-c2ccc(CN3CCOCC3)cc2)cc(C(=O)NCc2c(C)cc(C)[nH]c2=O)c1C)C1CCOCC1 [Compound A, N-((4,6-dimethyl-2-oxo-1,2-dihydropyridin-3-yl)methyl)-5-(ethyl (tetrahydro-2H-pyran-4-yl)amino)-4-methyl-4′-(morpholinomethyl)-[1,1′-biphenyl]-3-carboxamide]",LCC (lowest cytotoxic concentration),DOHH-2 cells,>10 µmol/L
same,LCC (lowest cytotoxic concentration),Farage cells,>10 µmol/L
same,LCC (lowest cytotoxic concentration),OCI-LY19 cells,10 to 25 µmol/L
same,LCC (lowest cytotoxic concentration),Toledo cells,>10 µmol/L
same,LCC (lowest cytotoxic concentration),Karpas-422 cells,0.12 µmol/L
same,LCC (lowest cytotoxic concentration),Pfeiffer cells,0.0005 µmol/L
same,LCC (lowest cytotoxic concentration),RL cells,>25 µmol/L
same,LCC (lowest cytotoxic concentration),SU-DHL-10 cells,0.14 µmol/L
same,LCC (lowest cytotoxic concentration),SU-DHL-6 cells,0.21 µmol/L
same,LCC (lowest cytotoxic concentration),WSU-DLCL2 cells,0.17 µmol/L
same,plasma levels (systemic exposure),[1],dose dependent increase in exposure
same,antitumor effect during the administration period,[2]; 125 mg/kg,tumor stasis
same,antitumor effect during the administration period,[2]; 133 mg/kg,stasis
same,target inhibition in PBMCs and bone marrow (ELISA),[3],Dose-dependent target inhibition
